# Molecular target: Human immunodeficiency virus type 1 protease (Human immunodeficiency virus 1, UniProt Q72874)
# Experiment: In vitro inhibition of recombinant HIV-1 protease expressed in Escherichia coli strain D1210
row,SMILES,IC50 [µM]
1,O=C(/C=C(/CN1CCC(O)(c2ccc(Cl)cc2)CC1)SCCO)c1ccccc1,140
2,O=C(CCCN1CCC(O)(c2ccc(Cl)cc2)CC1)c1ccc(F)cc1 [HALOPERIDOL],125

# Source: ChEMBL document CHEMBL1127657, “Haloperidol-based irreversible inhibitors of the HIV-1 and HIV-2 proteases” (J Med Chem, 1994)
